As usually defined, the inhibition is the relative decrease from the control value, in per cent.

Sequences of proteins named here, by UniProt entry; tags and fusion partners are left off.
UniProt P63165, whole entry, looked up: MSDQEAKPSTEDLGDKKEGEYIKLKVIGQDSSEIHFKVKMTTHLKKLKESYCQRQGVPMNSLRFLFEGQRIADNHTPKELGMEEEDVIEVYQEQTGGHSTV

SMILES strings stand for the structures. Only a part is listed here, and it is no random draw. Active and inactive are the calls of the source. Cut-off read from the data, not from the text of the source: active = inhibition above about 37%; inactive = the rest.

In this experiment the target is Small ubiquitin-related modifier 1 (Homo sapiens) (UniProt P63165). In words: modulators of SUMO1 protein-protein interactions, primary screen, biochemical, uHTS (AID 602429). The conditions noted are these: SUMO1 binding to a labelled peptide, TR-FRET, 1 h; at 20 µM; stronger effect = higher value. Background: Time-resolved FRET reads energy transfer from a long-lived donor to a nearby acceptor.
In the case of `CN1CCCC(OC(=O)C(c2ccccc2)c2ccccc2)C1` (configuration not stated), the inhibition is inactive: -3.15%. As for `Cc1ccc(OP(=O)(Nc2nccs2)Oc2ccc(C)cc2)cc1`, the figure is inactive: 2.04%; as for `COc1ccccc1OP(=O)(Nc1ccc(C)cn1)Oc1ccccc1OC`, inactive: 7.79%; as for `Nc1cccc2ccc([As](=O)(O)O)cc12`, inactive: -6.18%. To `CCN(N=Nc1nonc1N)c1nonc1N` belongs inactive: -0.955%. Consider `CN(C)P(=O)(N(C)C)n1c(Nc2ccccc2)nnc1-c1ccccc1`, for which the inhibition is inactive: -0.236%. To `O=P(Nc1nc2ccc(Cl)cc2s1)(c1ccccc1)c1ccccc1` belongs inactive: 4.25%; to `CCCC1OP(N)(=O)OCC1CC` (configuration not stated), inactive: -4.06%. As for `O=C(O)c1ccccc1[As](=O)(O)O`, the figure is inactive: 0.0175%; as for `CC(=O)Nc1ccc([As](=O)(O)O)cc1`, inactive: -3.53%. As for `CN(C(=O)Cc1ccc(Cl)c(Cl)c1)[C@H]1CCCC[C@@H]1N1CCCC1`, the figure is inactive: 1.26%. Consider `Cc1ccc(NP(=O)(Oc2ccccc2F)Oc2ccccc2F)nc1`, for which the inhibition is inactive: 0.0733%. Turning to `CCOP(=O)(Nc1ccccc1)OCC`, the inhibition is inactive: 2.54%.

On to `Cc1cc(SC(NC(=O)c2ccc(F)cc2)C(Cl)(Cl)Cl)ncn1` (configuration not stated), for which the inhibition is inactive: -5.54%.

Regarding `O=[N+]([O-])c1ncn(CCn2ncnc2[N+](=O)[O-])n1`, the inhibition was inactive: -16.9%. To `CC(C)(C)C(=O)NC(Sc1ccncn1)C(Cl)(Cl)Cl` (configuration not stated) belongs inactive: -6.69%; to `O=C(O)CNc1ccc([As](=O)(O)O)cc1`, inactive: 3.84%; to `O=[N+]([O-])c1cccc(NC2=NCC(CBr)S2)c1` (configuration not stated), inactive: -21.7%. To `COC(=O)C1(C)COP(=O)(Nc2ccccc2)OC1` (configuration not stated) belongs inactive: 1.08%. To `O=P1(N(CCCl)CCCl)OCCCS1` (configuration not stated) belongs inactive: 0.409%; to `O=C(Nc1cc([As](=O)(O)O)ccc1O)c1ccccc1`, inactive: -7.43%. As for `CCN(/C(=N/P(=O)(N1CCOCC1)N1CCOCC1)N1CCOCC1)c1ccc(OC)cc1`, the inhibition is inactive: 0.397%.

As for `C[N+]1=C2C=CC=CC=C2SC12C([N+](=O)[O-])=CC([N+](=O)[O-])=C[C-]2[N+](=O)[O-]` (configuration not stated), the inhibition was inactive: 3.78%. As for `Nc1ccc([As](=O)(O)c2ccc(N)cc2)cc1`, the figure is inactive: -1.32%; as for `c1cc(-c2nn[nH]n2)ccc1-c1nn[nH]n1`, inactive: -0.425%. As for `CC1CCN(C(=O)Oc2c(Cl)cc(Cl)c3cccnc23)CC1`, the figure is inactive: -7.94%.

Consider `CN(C)C(=O)OCCc1n(C)cc[n+]1C`, for which the inhibition is inactive: 1.12%. As for `CC(C)=N/N=C(\N)N[N+](=O)[O-]`, the inhibition was inactive: 1.11%. As to `CC(C)c1nc(Nc2ccccc2)n(P(=O)(N(C)C)N(C)C)n1`, the inhibition was inactive: 0.106%. As for `COc1ccc(C2=NCC(CBr)S2)cc1` (configuration not stated), the inhibition is inactive: 0.862%. As for `O=[N+]([O-])c1cc([N+](=O)[O-])c(CCNc2ccccc2)c([N+](=O)[O-])c1`, the figure is inactive: -21.1%; as for `CCc1nc2c(n1)c1c(non1O)c1c2no[n+]1[O-]`, inactive: -19.6%.

Consider `Cc1ccc(NP(=O)(Oc2ccccc2)Oc2ccccc2)nc1`, for which the inhibition is inactive: 0.906%. As for `CC(=O)N1C2C3N(C(C)=O)C1C1N(C(C)=O)C(C(N1C(C)=O)N3C(C)=O)N2C(C)=O`, the figure is inactive: 0.119%. For `O=[N+]([O-])c1cccc2n[nH]nc12`, the inhibition was inactive: -20.1%. To `O=P(Nc1nccs1)(c1ccccc1)c1ccccc1` belongs inactive: 1.72%; to `CC(C)C(=O)NC(Sc1ccccc1)C(Cl)(Cl)Cl` (configuration not stated), inactive: -0.762%. `c1nnnn1CCn1cnnn1`: the inhibition is inactive: 0.44%. As for `O=[As](O)(c1ccccc1)c1ccc(O)cc1`, the figure is inactive: -3.51%; as for `CC(=O)NC(SC(=S)N(C)C)C(Cl)(Cl)Cl` (configuration not stated), inactive: -0.13%; as for `O=[N+]([O-])c1ncn(CCn2cnc([N+](=O)[O-])n2)n1`, inactive: -26.4%. To `O=[N+]([O-])c1ccc(O)c(/C=N/Nc2ccc([N+](=O)[O-])cc2[N+](=O)[O-])c1` belongs inactive: -9.48%.

In the case of `O=C(OC1CN2CCC1CC2)c1cccc(Cl)c1` (configuration not stated), the inhibition is inactive: 0.842%.

With `Nc1ccc([As](=O)(O)c2ccc([N+](=O)[O-])cc2)cc1`, the inhibition was inactive: -24.3%.

`C(Cc1nn[nH]n1)Cc1nn[nH]n1`: the inhibition was inactive: -2.44%.

As for `CN(C)C1(CNC(=O)c2ccc(Cl)c(S(N)(=O)=O)c2)CCCCC1`, the inhibition is inactive: 2.13%. As for `O=P(Nc1ccccn1)(c1ccc(Br)cc1)c1ccc(Br)cc1`, the figure is inactive: -4.12%. As for `Nc1ccc(CCCCOc2ccccc2)cc1`, the inhibition was inactive: -12.5%.

For `COc1ccc(N)c([N+](=O)[O-])c1[N+](=O)[O-]`, the inhibition was inactive: -38.2%. To `C[C@H]1OP(=O)(Oc2ccccc2)[C@H](O)[C@H](O)[C@H]1N=[N+]=[N-]` (some centres not stated) belongs inactive: 4.93%; to `O=P(Nc1nc2ccccc2s1)(c1ccccc1)c1ccccc1`, inactive: -0.0735%. As for `CCC(=O)N1C2C3N(C(=O)CC)C1C1N(C(=O)CC)C(C(N1C(=O)CC)N3C(=O)CC)N2C(=O)CC`, the figure is inactive: 1.54%; as for `O=C(OC1CN2CCC1CC2)c1ccccc1` (configuration not stated), inactive: 2.63%. As to `CC(=O)NC(SC(=S)N(CC(C)C)CC(C)C)C(Cl)(Cl)Cl` (configuration not stated), the inhibition was inactive: 1.38%. Consider `Cc1ccc(OP(=O)(Nc2ccccn2)Oc2ccc(C)cc2)cc1`, for which the inhibition is inactive: -0.081%. To `COC(=O)c1cc2c(s1)N=C(c1ccccc1)N(C)P2(=O)N1CCOCC1` (configuration not stated) belongs inactive: 0.314%; to `CN(C)C(=O)Oc1noc2ccccc12`, inactive: 1.51%. As for `O=c1c2cc([N+](=O)[O-])ccc2[nH]c2c([N+](=O)[O-])cc([N+](=O)[O-])cc12`, the figure is inactive: 21%. As for `Cc1ccccc1OP(=O)(Nc1ccccn1)Oc1ccccc1C`, the figure is inactive: 7.34%.

In the case of `CC(NC(=O)COC(=O)C(O)(c1ccccc1)c1ccccc1)c1ccccc1` (configuration not stated), the inhibition is inactive: 3.95%. To `Cc1ccc(NP(=O)(Oc2cccc(C)c2)Oc2cccc(C)c2)nc1` belongs inactive: -4.45%; to `c1ccc(-c2nn[nH]n2)c(-c2nn[nH]n2)c1`, inactive: -1.97%. As for `O=C(NC1CCS(=O)(=O)C1)NP(=S)(Oc1ccccc1)Oc1ccccc1` (configuration not stated), the inhibition is inactive: -3.86%.

For the compound `CCNC(=S)/N=C(\N)N[N+](=O)[O-]`, the inhibition is inactive: 12%.

Turning to `O=P1(N(CCCl)CCCl)OCCC2CCCCN21` (configuration not stated), the inhibition is inactive: -19.2%. On to `C[C@@H]1C=CCP(=O)(Oc2ccccc2)O1` (some centres not stated), for which the inhibition was inactive: -1.28%.

As to `C[C@H]1OP(=O)(Oc2ccccc2)C[C@@H]2O[C@@H]21` (some centres not stated), the inhibition was inactive: -10.8%. To `Cc1ccccc1CN(C)C(=O)COC(=O)C(O)(c1ccccc1)c1ccccc1` belongs inactive: 4.63%; to `COC(=O)C1(C)COP(=O)(NCc2ccccc2)OC1` (configuration not stated), inactive: 1.51%. With `N#C/C(=C\c1ccc(N(CCBr)CCBr)cc1)C(N)=O`, the inhibition is inactive: -20.7%. To `CC(=O)c1ccc(N2CC2c2ccncc2)cc1` (configuration not stated) belongs inactive: -1.19%; to `CC(=O)Nc1ccc(Oc2c([N+](=O)[O-])cc([N+](=O)[O-])cc2[N+](=O)[O-])cc1`, inactive: -17.6%. As for `CC(=O)Nc1ccc([As](=O)(O)O)c(O)c1`, the figure is inactive: 0.909%; as for `CCOc1ccc(C2=NCC(CBr)S2)cc1` (configuration not stated), inactive: -0.108%; as for `O=P1(Nc2nc3ccc(Cl)cc3s2)COc2ccccc2O1` (configuration not stated), inactive: 1.83%. As for `CC(C)(C)C(=O)NC(Sc1ccccc1)C(Cl)(Cl)Cl` (configuration not stated), the figure is inactive: 2.53%; as for `CCc1cc(O)c([N+](=O)[O-])c(C)c1[N+](=O)[O-]`, inactive: -0.201%.

Source of the values: PubChem BioAssay AID602429 (Sanford-Burnham Center for Chemical Genomics, 2012).
